Experimental data from patent publication US9120249B2, “Implant device release agents and methods of using same” (ENDO PHARMACEUTICALS SOLUTIONS INC., priority 2007, dated 2015).

Key:
[1] = cited from earlier work
[2] = Tensile strength of gamma irradiated cartridges, initially and after storage at 37° C.; assay type: physicochemical; details: initially after irradiation and after 3 and 8 months storage at 37° C.
Procedure: Approximately 15-20 cartridges of each formulation were prepared and gamma irradiated at 10-11 kGy. The tensile strength of five cartridges from each formulation was measured initially. The remaining cartridges were stored at 37° C. and tested for tensile strength again at 3 and 8 months.

In the case of “D-α-tocopheryl (Vitamin E) polyethylene glycol 1000 succinate [Vitamin E TPGS]”, the CMC ([1]; critical micelle concentration) is listed as 0.1 mM, the HLB ([1]; hydrophilic-lipophilic balance) is listed as 13 and the “tensile strength of cartridges, in words” value [2] is listed as “highest tensile strength”.
